Here are results for one compound from patent US20030114375A1, “Method for treating cystic fibrosis” (The Government of the USA, Dept of Health and Human …, priority 1994, published 2003).

Molecules are shown by their SMILES.

The test system of the test is CFPAC cells. The test can be described thus: [36Cl]- efflux from CFPAC cells.

Take `Cn1c(=O)c2[nH]c(C3CCCCC3)nc2n(C)c1=O`: the “thresh (nM): minimum concentration required to detect an effect upon chloride efflux” value is on record as 0.1 nM.
